{"sequences": {"note": "Protein sequences, listed by entry. Tags and fused reporters are not part of them. Lines headed by an entry give the natural chain unless they say otherwise; changes in a name come on top.", "UniProt P08473": "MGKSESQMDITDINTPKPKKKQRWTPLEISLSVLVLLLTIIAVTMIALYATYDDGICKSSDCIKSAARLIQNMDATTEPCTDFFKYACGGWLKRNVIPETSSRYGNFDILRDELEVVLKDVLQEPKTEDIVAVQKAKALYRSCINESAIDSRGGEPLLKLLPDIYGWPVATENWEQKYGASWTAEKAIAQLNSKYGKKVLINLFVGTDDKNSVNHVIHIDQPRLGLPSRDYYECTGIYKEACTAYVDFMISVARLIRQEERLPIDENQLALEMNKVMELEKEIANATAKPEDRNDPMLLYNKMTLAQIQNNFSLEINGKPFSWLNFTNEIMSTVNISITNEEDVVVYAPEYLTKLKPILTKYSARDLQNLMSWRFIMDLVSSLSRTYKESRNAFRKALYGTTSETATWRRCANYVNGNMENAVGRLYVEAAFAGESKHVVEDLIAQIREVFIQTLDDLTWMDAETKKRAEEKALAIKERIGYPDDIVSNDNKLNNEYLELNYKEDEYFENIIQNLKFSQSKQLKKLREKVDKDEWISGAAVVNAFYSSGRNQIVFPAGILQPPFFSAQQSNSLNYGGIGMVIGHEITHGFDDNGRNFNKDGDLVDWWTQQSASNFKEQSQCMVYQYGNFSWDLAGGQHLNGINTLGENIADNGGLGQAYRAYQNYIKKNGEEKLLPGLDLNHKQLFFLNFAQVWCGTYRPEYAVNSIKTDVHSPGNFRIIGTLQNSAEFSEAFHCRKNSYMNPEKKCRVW"}, "source": "patent EP4792886A2", "about": "“CNP PRODRUGS” (Ascendis Pharma Growth Disorders A/S, priority 2015, dated 2016)", "biological_target": "recombinant human NEP (Homo sapiens, UniProt P08473)", "experiment": "Digest of CNP variants by Neutral Endopeptidase in vitro (NEP digest assay)", "conditions": "NEP 2.5 µg/mL, 100 µg CNP equivalents/mL, 50 mM Tris-HCl pH 7.4, 10 mM NaCl, 37 °C, up to 4 days; normalized to mean CNP-34 ([…], footnote 1) or CNP-38 ([…], footnote 2) half life; stable analogs", "description": "Samples were taken at different time intervals. […] The resulting reaction products were assigned using HPLC-MS."}
{"substance": "CNP-34", "values": [{"measurement": "half life norm.", "value": 4.15, "unit": "h"}]}
